{
  "source": "patent US5658908A",
  "about": "(priority 1992, dated 1997)",
  "system": "mu-opioid",
  "assay": "Respiratory/analgesia studies in rats compared to fentanyl",
  "details": "at higher (equivalent) doses",
  "data": [
    {"smiles": "C=CCN1C[C@H](C)N([C@H](c2cccc(O)c2)c2cccs2)C[C@H]1C", "values": [
      {"measurement": "safety compared to fentanyl", "value": "much safer than fentanyl"}
    ]}
  ]
}
